{"source": "patent EP2628479A1", "about": "“Cosmetic use of climbazol” (Henkel AG&Co. KGAA, priority 2011, dated 2013)", "key": {"CYP26A1": {"test_system": "CYP26A1", "assay": "Identification as RAMBA: qPCR of CYP26A1 expression change in keratinocytes incubated with substance plus retinoic acid", "details": "in combination with Retinsäure; statement in words on Tabelle 1"}, "Co-Kultur-System": {"test_system": "Co-Kultur-System", "assay": "Collagen neosynthesis in co-culture system (2D fibroblast culture with 3D epidermis model insert), P1 NP secreted into the medium", "format": "cell-based", "source_text": "Zum Nachweis der Kollagen-Neusynthese wurde ein Co-Kultur-System verwendet, das aus einer zweidimensionalen Fibroblasten-Kultur besteht, auf die in einem Insert ein dreidimensionales Epidermismodell aufgesetzt wurde. Über das Nährmedium kann ein Stoffaustausch zwischen den Fibroblasten und den Keratinocyten des Epidermismodells erfolgen.\nAls Kontrollen für die Syntheseinduktion wurden Retinsäure und Retinol eingesetzt."}}, "data": [{"smiles": "CC(=O)N1CCN(c2ccc(OCC3COC(Cn4ccnc4)(c4ccc(Cl)cc4Cl)O3)cc2)CC1", "note": "(stereo not drawn) [Ketokonazol]", "values": [{"measurement": "Induktion von CYP26A1", "setting": "CYP26A1", "value": "deutlich vermindert"}, {"measurement": "P1 NP", "setting": "Co-Kultur-System; Ketokonazol 50µM, unbehandelt = 107", "value": 196, "unit": "µg/mL"}, {"measurement": "Kollagensynthese", "setting": "Co-Kultur-System; statement in words on Tabelle 2", "value": "Induktion der Kollagensynthese"}]}]}
